Laboratory results as given in PubChem BioAssay (NCATS).
The list shows a part of the results, in another mix than the full data. Records with an inconclusive call do not appear. The source made the active and inactive calls. The call rests on the fitted dose curve; in most records, active means well fitted curve in the direction sought with a large enough effect; inconclusive means small, poorly fitted or top-dose-only effect, or another doubt; inactive means no such curve, though single readings can be large; an effect the other way counts as inactive or inconclusive.

Tests used:
[1] = Viability qHTS for spleen associated tyrosine kinase inhibitor (SYKi) drug resistant MV4-11 cells (AID 1963824); conditions: SYKi-resistant MV4-11 viability, CellTiter-Glo, 72 h; further: potency means the concentration at half of the fitted maximal effect; nearly all actives have a fitted effect of over 35% in size
Text: Department of Medicine, Hematology/Oncology
University Hospital Frankfurt, Germany.
Trials have shown promising clinical activity of the selective SYK inhibitor entospletinib in patients with high expressing HOXA9/MEIS1 acute leukemias. As the development of resistance mechanisms is a common problem in the use of targeted drugs, we performed a chemical library screen to identify drug sensitivities in SYK inhibitor resistant AML cells. […] Glucocorticoids are potent immunosuppressants which work in part by inhibiting the transcription of cytokine genes.
Described herein is a viability screen to look for activity in the SYK inhibitor drug resistant cell line against four NCATS compound libraries (MIPE 5.0, NPC, NPACT, and Kinase) totaling 11372 compounds. Active hits were reacquired for confirmation and further secondary assay testing.
SEQUENCE No. (e.g., 1, 2, 3, etc.); […] (e.g., Cells, Incubation, Reagent, etc.); VALUE; DESCRIPTION.
1; Media; 2uL; white, solid-bottom Corning assay plate.
2; Compounds; 23nL; Echo acoustic dispenser. […]
7; Detection; Luminescence; ViewLux plate reader (PerkinElmer). […]
1. Quantitative high-throughput screening (qHTS) of small molecule compounds was conducted on drug resistant SYKi MV4-11 cell line. […]
5. Viability was assessed by adding 3uL of CellTiter-Glo detection reagent (Promega). […]
7. Luminescence was measured on a ViewLux plate reader (PerkinElmer).

[2] = Cellular viability qHTS for adrenocortical cancer (ACC) cell line SW-13 (AID 1963989); conditions: SW-13 ACC cells viability, CellTiter-Glo, 48 h; stronger effect = lower value;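 further: cells grown in serum-free medium with ITS supplement; on the % scale 0 is the no-effect control and ±100 the full control effect; nearly all actives have a fitted effect of over 65% in size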
Text: PI: Naris Nilubol, MD Surgical Oncology Program, National Cancer Institute (NCI) National Institute of Health (NIH), Bethesda, Maryland Adrenocortical cancer (ACC) is a rare malignancy with poor survival outcomes and few treatment options. Currently, mitotane is the only FDA-approved therapy for ACC. Although adjuvant radiation therapy is rarely utilized, it has the potential to improve survival in select cases. Through a quantitative high-throughput drug screen (qHTS), we identified auranofin (AF), a thioredoxin reductase (TXNRD) inhibitor, as a promising candidate drug. This study aims to evaluate whether AF can enhance the efficacy of radiation therapy in the treatment of ACC. Two human ACC cell lines, SW-13 and NCI-H295R, were screened using the National Center for Advancing Translational Sciences (NCATS) Pharmaceutical Collection (NPC) and the Mechanism Interrogation PlatE (MIPE) library (~4,991 compounds). […]
PROTOCOL TABLE (as described by Inglese J, Shamu CE and Guy RK. 2007) SEQUENCE No. (e.g., 1, 2, 3, etc.); […] […] 7; Detection; Luminescence; ViewLux plate reader NOTES (numbers refer to Sequence numbers above) 1. […] After incubation, luminescence was measured using a ViewLux plate reader (PerkinElmer, Waltham, MA, USA) with a clear filter was used to measure the number of metabolically competent cells. […]

SMILES | Potency [1] | activity (max response) [2]
Cc1cc([N+](=O)[O-])cc([N+](=O)[O-])c1O | active: 34.4 µM | –
OCCSCCO | – | inactive: 10.7%
